Experimental data: patent publication US20230270867A1, “CONJUGATE IN WHICH FL118 DRUG IS LINKED TO ACID-SENSITIVE LINKER, AND IMMUNOCONJUGATE USING SAME” (PINOTBIO, INC., priority 2020, published 2023)

Tests used:
[1] = system: MDA-MB-468 cells; test: In vivo drug efficacy, MDA-MB-468 xenograft model (cetuximab / Example 8); set-up: species or system mice; conditions: MDA-MB-468 model, 10 mg/kg I.V.
Procedure: (§1) All procedures related to animal handling, care, and treatment in this study were carried out in accordance with the guidelines approved by the Institutional Animal Care and Use Committee (IACUC) of Shanghai Model Organisms Center, Inc. according to the guidelines of the Association for Assessment and Accreditation of Laboratory Animal Care (AAALAC). Thirty 9 to 11 weeks old female mice weighing 16 to 18 g were accommodated in cages (300 mm×180 mm×150 mm), 3 to 5 mice in each cage, and cared at constant temperature (18 to 26° C.) and humidity (40 to 70%). The mice were provided with free access to radiation-sterilized dry granular feed and sterile drinking water in individual ventilated cages.
(§2) The JIMT-1 breast cancer cells were cultured under 5% CO2 and 37° C. conditions with DMEM containing 10% FBS, 100 U/mL penicillin, and 100 μg/mL streptomycin, and a subculture was performed by a routine method twice per week by trypsin-EDTA treatment. Cells growing in the exponential growth phase were harvested and counted for tumor inoculation. The MDA-MB-468 breast cancer cells were cultured under 5% CO2 and 37° C. conditions with RPMI containing 10% FBS, 100 U/mL penicillin, and 100 μg/mL streptomycin, and a subculture was performed by a routine method twice per week by trypsin-EDTA treatment. Cells growing in the exponential growth phase were harvested and counted for tumor inoculation.
(§3) JIMT-1 tumor cells (1×10^7) or MDA-MB-468 cells (1×10^7) in 0.2 mL DPBS with Matrigel were inoculated subcutaneously into the right anterior flank of each mouse. The animals were randomly grouped (Tables 5-7) when the mean tumor volume reached about 215 mm^3, and then treatment for the drug efficacy study was initiated.
(§4) The main endpoint was determined as the time point when it could be confirmed if tumor growth could de delayed or if the mouse could be treated. The two-dimensional size of the tumor was measured twice a week by using a caliper, and the volume was recorded in the unit of mm^3 by using the formula (V=0.5a×b^2, where a and b are the major and minor diameters of the tumor, respectively).
(§5) The tumor growth inhibition (TGI) was calculated for each group.
(§6) TGI (%)=[1−(Ti/T0)/(Vi/V0)]×100
(§7) (Ti is the mean tumor volume of the treatment group on a given day; T0 is the mean tumor volume of the treatment group on the first treatment day; Vi is the mean tumor volume of the vehicle control group on the same day as Ti; and V0 is the mean tumor volume of the vehicle control group on first treatment day.)
(§8) Animals with a weight loss of 15% or greater or a tumor volume equal to or greater than 3000 mm^3 were euthanized at a humane endpoint.
(§9) The results are expressed as mean and standard error (mean±SEM). The data was analyzed by performing a two-way RM ANOVA Dunnett's multiple comparison test by using the Graphpad Prism 6.0 software program, and p<0.05 was considered statistically significant.

[2] = Body weight of JIMT-1 or MDA-MB-468 tumor model mice; assay type: in vivo; conditions: 10 mg/kg I.V.; for Change of body weight: Day 0 to Day 21
Procedure: During routine monitoring, the animals were checked daily for normal behavior such as mobility, food and water consumption (observation only), weight change (weighed twice a week), eye/hair matting, tumor growth, and treatment effects. Mortality and observed clinical signs were recorded based on the number of animals in each subset.
The body weight of the mice of the JIMT-1 or MDA-MB-468 tumor model was regularly monitored.

[3] = system: JIMT-1 tumor cells; test: In vivo drug efficacy, JIMT-1 xenograft model (trastuzumab / Example 5); set-up: species or system mice; conditions: JIMT-1 model, 10 mg/kg I.V.
Procedure: as §1, §2, §3, §4, §5, §6, §7, §8, §9

**Q.** Which results are given for “Cetuximab: EGFR target monoclonal antibody; control”?
**A.** Tumor volume ([1]; Day 0): 215.45 ± 17.45 mm^3; Tumor volume ([1]; Day 4): 237.94 ± 11.05 mm^3; Tumor volume ([1]; Day 7): 293.12 ± 23.39 mm^3; Tumor volume ([1]; Day 11): 318.07 ± 23.97 mm^3; Tumor volume ([1]; Day 14): 327.41 ± 30.50 mm^3; Tumor volume ([1]; Day 18): 340.95 ± 34.19 mm^3; TGI ([1]; Day 21): 15.92%; Tumor volume ([1]; Day 21, 10 mg/kg): 363.07 ± 44.38 mm^3; Tumor volume ([1]; Day 21, listed as cetuximab, 10 mg/kg): 363.07±44.38 mm^3; Body weight ([2]; MDA-MB-468 model, Day 0): 16.52 ± 0.35 g; Change of body weight ([2]; MDA-MB-468 model): +0.9 g; Body weight ([2]; MDA-MB-468 model, Day 21): 17.42 ± 0.61 g

**Q.** With “Trastuzumab: Her2 target monoclonal antibody; control” as the substance, how does the Tumor volume ([3]; Day 0) read?
**A.** The Tumor volume was 216.90 ± 5.63 mm^3.

**Q.** And the Tumor volume ([3]; Day 4)?
**A.** Its Tumor volume is 394.05 ± 24.62 mm^3.

**Q.** What about the Tumor volume ([3]; Day 7) of the same substance?
**A.** The Tumor volume was 628.63 ± 91.39 mm^3.

**Q.** What about the Tumor volume ([3]; Day 11) of the same substance?
**A.** Its Tumor volume is 828.63 ± 152.73 mm^3.

**Q.** And the Tumor volume ([3]; Day 14)?
**A.** The Tumor volume was 857.34 ± 174.86 mm^3.

**Q.** What about the Tumor volume ([3]; Day 18) of the same substance?
**A.** Its Tumor volume is 775.02 ± 141.84 mm^3.

**Q.** What about the TGI ([3]; Day 21) of the same substance?
**A.** Its TGI is 59.41%.

**Q.** What about the Tumor volume ([3]; Day 21, 10 mg/kg) of the same substance?
**A.** Its Tumor volume is 671.06±92.85 mm^3.

**Q.** What about the Body weight ([2]; JIMT-1 model, Day 0) of the same substance?
**A.** The Body weight was 17.49 ± 0.67 g.

**Q.** And the “Change of body weight” value ([2]; JIMT-1 model)?
**A.** Its value is “+1.56 g”.

**Q.** And the Body weight ([2]; JIMT-1 model, Day 21)?
**A.** Its Body weight is 19.05 ± 0.84 g.
